In patent US9890185B2, “Urea derivatives useful as kinase inhibitors” (Respivert Limited, priority 2013, dated 2018):

Tested on: endotoxin (LPS)-induced uveitis
Assay: Endotoxin-induced uveitis in rats (in vivo assay vi)
Parameters: species or system Lewis rats
Conditions: LPS-stimulated rats, topical to eye, 1 mg/mL
Protocol: Male, Lewis rats (6-8 weeks old, Charles River UK Limited) are housed in cages of 3 at 19-21° C. with a 12 h light/dark cycle (07:00/19:00) and fed a standard diet of rodent chow and water ad libitum. […] Untreated rats are injected with PBS. […] Before administration, the solution or suspension to be administered is agitated for 5 minutes to ensure a uniform suspension. 6 hours after LPS dosing, animals are euthanized by overdose with pentobarbitone (i.v.). Following euthanasia, the right eye of each animal is enucleated and dissected into front (anterior) and back (posterior) sections around the lens. Each section is weighed and homogenised in 500 μL of sterile phosphate buffered saline followed by 20 minutes centrifugation at 12000 rpm at 4° C. The resulting supernatant is divided into 3 aliquots and stored at −80° C. until subsequent cytokine analysis by R&D DuoSet ELISA.

C[C@@H]1C[C@H]2[C@@H]3CCC4=CC(=O)C=C[C@]4(C)[C@@]3(F)[C@@H](O)C[C@]2(C)[C@@]1(O)C(=O)CO [Dexamethasone, dexamethasone, reference compound]
IL-1β Anterior tissue: 313.9 ± 109.6 pg/mL | IL-1β Posterior tissue: 215.2 ± 88.5 pg/mL
